Protein sequences, listed by entry. Tags and fused reporters are not part of them. Residues count along the entry.
UniProt P37231, 234-505 limits assumed: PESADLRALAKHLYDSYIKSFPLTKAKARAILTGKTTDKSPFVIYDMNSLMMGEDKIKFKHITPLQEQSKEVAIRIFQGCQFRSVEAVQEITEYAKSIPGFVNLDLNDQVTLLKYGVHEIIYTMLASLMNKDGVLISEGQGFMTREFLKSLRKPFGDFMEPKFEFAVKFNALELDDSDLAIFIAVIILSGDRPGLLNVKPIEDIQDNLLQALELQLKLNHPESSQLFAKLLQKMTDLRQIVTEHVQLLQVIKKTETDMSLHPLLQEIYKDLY

In patent US12606541B2, “PPARg modulators and methods of use” (Eisai R&D Management Co., Ltd., priority 2020, dated 2026):

Legend:
[1] = test system: UM-UC-9 engineered cells; experiment: Cell proliferation / short-term viability assay, CellTiter-Glo 144 h; details: read-out: CTGlo 144 h UMUC9.5, G150
Protocol: Cell Seeding for Proliferation Assay
UM-UC-9 engineered cells were cultured in Dulbecco's Modified Eagle Medium (DMEM) supplemented with 10% FBS, 25 mM glucose (high glucose), 4.0 mM L-glutamine, 2.0 mM GlutaMAX™, 1.0 mM pyruvate, 1.0% non-essential amino acids (NEAA) in a 95% humidified incubator at 37° C. with 5% CO2. Cell banks of UM-UC-9 engineered assay-ready cells (ARCs) were prepared from a very active growth stage. Vials of ARCs containing approximately 5×10^6 cells per vial were stored in liquid nitrogen vapor phase cryostorage until use.
For making assay plates, ARCs were recovered from cryostorage, strained in a […] cell strainer, verified for cell viability >90% and counted using a cell counter (Cellometer Auto 1000, Nexelom). Each cell line was seeded into 384-well plates (50 μl/well) using DMEM medium at a density previously determined to be in log growth phase 7 days post-seeding (500 cells/well) using a bulk reagent dispenser (Multidrop™ Combi, Thermo Scientific) with a large-bore plastic-tip cassette pre-sanitized with 70% ethanol. One plate of cells was designated as the pretreatment time-zero (T0) control. Freshly seeded plates were allowed to sit lidded for 30 minutes within a biosafety cabinet for cells to settle distributed within the plate wells uniformly and then placed into an automated incubator (STX110, Liconic) at 37° C., 5% CO2, and 95% relative humidity.
Preparation of Test Compound in Assay-Ready Plate
Compounds were stored in a low-temperature sample archive as 10 mM dimethyl sulfoxide (DMSO) solutions at −20° C. under reduced humidity (−45° C. dew point) and protected from light. All samples in the automated archive are stored in 2D barcoded polypropylene tubes, tracked through a laboratory information management system (LIMS), and have been verified for identity and purity by NMR (Chemistry, H3 Biomedicine) and by LCMS (Analytical Chemistry, H3 Biomedicine) at the time of sample registration. Identity by mass matching and purity are again verified at the time of sample request fulfillment by redundant LCMS methods (acidic and basic separation protocols; Analytical Chemistry, H3 Biomedicine). Samples retrieved from low-temperature archive storage were solubilized by heated sonication (Bransonic® Ultrasonic Bath, Branson), transferred (Microlab Starlet, Hamilton) and serially-diluted (Viaflo Assist, Integra) by low-volume liquid handlers, and tracked in LIMS by automation log files to create a ID barcoded master dose-response plate (MDR) to serve as a standard source for all assay-ready plates (ARP) used within an experiment. ARPs prepared by acoustic transfer (ATS-100, EDC) of nL volumes from the MDR source were heat-sealed (PlateLoc, Agilent) and stored at −20° C. prior to use (<7 days from production). Tracking of liquid transfers via acoustic dispenser log files were used to update the LIMS system for all ARP plate maps.
Measurement of Pretreatment Control Cells and Sample Anti-Proliferative Effects on Treated Cells
On day 0 (pretreatment cells) or day 7 (treated cells), a cell proliferation assay was performed using an automated robotic assay platform (ACell, High-Res Biosolutions). Cell ARP's were removed from incubation, their plate lid discarded, and using a bulk reagent dispenser (Multidrop™ Combi, Thermo Scientific with a small-bore metal-tip cassette) 25 μL (1/2 volume) of Cell Titer-Glo® 2.0 Cell Viability Assay reagent (Promega) was added to wells of columns 1-23 (column 24 will be used as plate background or positive control). Cell ARP's were incubated at room temperature in an automation hotel position for a total of 1.0 minute while the next plate was delivered to the bulk reagent dispenser and then lid-free cell ARP's were returned to incubate at 37° C. for 2.5 hours. […]

[2] = biological target: His6-TEV-PPARγ-(234-505) (Homo sapiens, UniProt P37231); experiment: TR-FRET Assay to Measure Co-R Peptide Recruitment to PPARγ; details: read-out: TR-FRET i-Ag, Co-R peptide (SMRT-ID2) recruitment, top final concentration 20 μM

| SMILES | AC50 [2] [µM] | IC50 [1] [µM] |
| --- | --- | --- |
| Cc1cc(-c2cc(C(=O)N3[C@@H]4CC[C@H]3C[C@H](C(=O)NC3CCC(C(F)(F)F)OC3)C4)n[nH]2)c(F)cn1 (single isomer, unassigned) [Example 289-A] | 3.61 | 0.135 |
| Cc1cc(-c2cc(C(=O)N3[C@@H]4CC[C@H]3C[C@H](C(=O)NC3CCC(C(F)(F)F)OC3)C4)n[nH]2)c(F)cn1 (single isomer, unassigned) [Example 289-B] | 0.0028 | 0.0186 |
| Cc1cc(-c2cc(C(=O)N3[C@@H]4CC[C@H]3C[C@H](C(=O)NC3CCC(C(F)(F)F)OC3)C4)n[nH]2)c(F)cn1 (single isomer, unassigned) [Example 289-C] | 0.0091 | 0.0521 |
| Cc1cc(-c2cc(C(=O)N3[C@@H]4CC[C@H]3C[C@H](C(=O)NC3CCC(C(F)(F)F)OC3)C4)n[nH]2)c(F)cn1 (single isomer, unassigned) [Example 289-D] | 0.158 | 0.153 |
| COC1(C(F)(F)F)CCC(NC(=O)[C@@H]2C[C@H]3CC[C@@H](C2)N3C(=O)c2cc(-c3cc(C)ncc3F)[nH]n2)CC1 (single isomer, unassigned) [Example 292-A] | 0.0049 | 0.0246 |
| COC1(C(F)(F)F)CCC(NC(=O)[C@@H]2C[C@H]3CC[C@@H](C2)N3C(=O)c2cc(-c3cc(C)ncc3F)[nH]n2)CC1 (single isomer, unassigned) [Example 292-B] | 0.249 | 0.909 |
| COc1cc(-c2cc(C(=O)N3[C@@H]4CC[C@H]3C[C@H](C(=O)NC3CCC(OC)(C(F)(F)F)CC3)C4)n[nH]2)c(F)cn1 (single isomer, unassigned) [Example 294-A] | 0.0054 | 0.0189 |
| COc1cc(-c2cc(C(=O)N3[C@@H]4CC[C@H]3C[C@H](C(=O)NC3CCC5(CCC(=O)N5)CC3)C4)n[nH]2)c(F)cn1 (single isomer, unassigned) [Example 295-A] | 2.09 | > 4 |
| COc1cc(-c2cc(C(=O)N3[C@@H]4CC[C@H]3C[C@H](C(=O)NC3CCC5(CCC(=O)N5)CC3)C4)n[nH]2)c(F)cn1 (single isomer, unassigned) [Example 295-B] | 0.433 | > 4 |
| COc1cc(-c2cc(C(=O)N3CC(C)C(C(=O)N[C@H]4CC[C@@](O)(C(F)(F)F)CC4)CC3C)n[nH]2)c(F)cn1 (single isomer, unassigned) [Example 298-A] | 6.51 | > 4 |
| COc1cc(-c2cc(C(=O)N3CC(C)C(C(=O)N[C@H]4CC[C@@](O)(C(F)(F)F)CC4)CC3C)n[nH]2)c(F)cn1 (single isomer, unassigned) [Example 298-B] | 0.833 | > 4 |
| COc1cc(-c2cc(C(=O)N3CC(C)C(C(=O)N[C@H]4CC[C@@](O)(C(F)(F)F)CC4)CC3C)n[nH]2)c(F)cn1 (single isomer, unassigned) [Example 298-C] | 0.306 | 1.15 |
| COc1cc(-c2cc(C(=O)N3CC(C)C(C(=O)N[C@H]4CC[C@@](O)(C(F)(F)F)CC4)CC3C)n[nH]2)c(F)cn1 (single isomer, unassigned) [Example 298-D] | 5.51 | > 4 |
| COc1cc(-c2cc(C(=O)N3CC(C)C(C(=O)N[C@H]4CC[C@@](O)(C(F)(F)F)CC4)CC3C)n[nH]2)c(F)cn1 (single isomer, unassigned) [Example 298-E] | 0.0338 | 0.132 |
| COc1cc(-c2cc(C(=O)N3CC(C)C(C(=O)N[C@H]4CC[C@@](O)(C(F)(F)F)CC4)CC3C)n[nH]2)c(F)cn1 (single isomer, unassigned) [Example 298-F] | 10.4 | > 4 |
| COc1cc(-c2cc(C(=O)N3[C@@H]4CC[C@H]3C[C@H](C(=O)NC3CCC(OC)(C(F)F)CC3)C4)n[nH]2)c(F)cn1 (single isomer, unassigned) [Example 302-A] | 0.0049 | 0.0284 |
| COc1cc(-c2cc(C(=O)N3[C@@H]4CC[C@H]3C[C@H](C(=O)NC3CCC(OC)(C(F)F)CC3)C4)n[nH]2)c(F)cn1 (single isomer, unassigned) [Example 302-B] | 0.0809 | 0.27 |
| CCOC1(C(F)(F)F)CCC(NC(=O)[C@@H]2C[C@H]3CC[C@@H](C2)N3C(=O)c2cc(-c3cc(OC)ncc3F)[nH]n2)CC1 (single isomer, unassigned) [Example 303-B] | 0.0026 | 0.0205 |
| COCCOC1(C(F)(F)F)CCC(NC(=O)[C@@H]2C[C@H]3CC[C@@H](C2)N3C(=O)c2cc(-c3cc(OC)ncc3F)[nH]n2)CC1 (single isomer, unassigned) [Example 304-A] | 0.0083 | 0.0629 |
| COCCOC1(C(F)(F)F)CCC(NC(=O)[C@@H]2C[C@H]3CC[C@@H](C2)N3C(=O)c2cc(-c3cc(OC)ncc3F)[nH]n2)CC1 (single isomer, unassigned) [Example 304-B] | 0.106 | 0.514 |

Now from value to molecule, other results behind:

| AC50 [2] [µM] | SMILES | IC50 [1] [µM] |
| --- | --- | --- |
| 0.0149 | COc1cc(-c2cc(C(=O)N3[C@@H]4CC[C@H]3C[C@H](C(=O)NC3CCC(C(F)(F)F)OC3)C4)n[nH]2)c(F)cn1 (single isomer, unassigned) [Example 280-D] | 0.0449 |
| 0.132 | COc1cc(-c2cc(C(=O)N3[C@@H]4CC[C@H]3C[C@H](C(=O)NC(C)c3nc(C(F)(F)F)no3)C4)n[nH]2)c(F)cn1 (single isomer, unassigned) [Example 290-A] | 0.506 |
| 5.63 | COc1cc(-c2cc(C(=O)N3[C@@H]4CC[C@H]3C[C@H](C(=O)NC(C)c3nc(C(F)(F)F)no3)C4)n[nH]2)c(F)cn1 (single isomer, unassigned) [Example 290-B] | 3.36 |
| 0.106 | COc1cc(-c2cc(C(=O)N3[C@@H]4CC[C@H]3C[C@H](C(=O)NC3CCC(OC)(C(F)(F)F)CC3)C4)n[nH]2)c(F)cn1 (single isomer, unassigned) [Example 294-B] | 0.236 |
| 0.0235 | CCN1CC(NC(=O)[C@@H]2C[C@H]3CC[C@@H](C2)N3C(=O)c2cc(-c3cc(OC)ncc3F)[nH]n2)CCC1C(F)(F)F (single isomer, unassigned) [Example 299-A] | 0.0955 |
| 0.207 | CCN1CC(NC(=O)[C@@H]2C[C@H]3CC[C@@H](C2)N3C(=O)c2cc(-c3cc(OC)ncc3F)[nH]n2)CCC1C(F)(F)F (single isomer, unassigned) [Example 299-B] | 0.587 |
| 0.0083 | CCN1CC(NC(=O)[C@@H]2C[C@H]3CC[C@@H](C2)N3C(=O)c2cc(-c3cc(OC)ncc3F)[nH]n2)CCC1C(F)(F)F (single isomer, unassigned) [Example 299-C] | 0.0507 |
| 0.0387 | CCN1CC(NC(=O)[C@@H]2C[C@H]3CC[C@@H](C2)N3C(=O)c2cc(-c3cc(OC)ncc3F)[nH]n2)CCC1C(F)(F)F (single isomer, unassigned) [Example 299-D] | 0.137 |
| 0.221 | CCN1CC(NC(=O)[C@@H]2C[C@H]3CC[C@@H](C2)N3C(=O)c2cc(-c3cc(OC)ncc3F)[nH]n2)CCC1C(F)(F)F (single isomer, unassigned) [Example 299-E] | 0.884 |
| 0.771 | CCN1CC(NC(=O)[C@@H]2C[C@H]3CC[C@@H](C2)N3C(=O)c2cc(-c3cc(OC)ncc3F)[nH]n2)CCC1C(F)(F)F (single isomer, unassigned) [Example 299-F] | 0.59 |
| 0.514 | COc1cc(-c2cc(C(=O)N3C4CCC3CC(C(=O)NC3CCC(C(F)(F)F)N(C)C3)C4)n[nH]2)c(F)cn1 (single isomer, unassigned) [Example 306-B] | 1.04 |
